Read-outs that look alike come from different tables or passages of the source.
Legend:
A2780 cells = experiment: Cell proliferation assay (A2780)
[1] = tested on: Poly/Mono-ADP Ribose in U2OS cells; experiment: PAR in cell western assay (parylation) in U2OS cells
PARP1 [2] = molecular target: T1, PARP1 (Homo sapiens, UniProt P09874); experiment: PARP trapping assay in U2OS cells
MDA-MB-436 cells = experiment: Cell proliferation assay (MDA-MB-436)
PARP1 [3] = molecular target: T1, PARP1; experiment: PARP1-enzyme assay (NAD/NADH-Glo biochemical assay); settings: read-out: PARP1-Enzyme Assay, recombinant PARP1, NAD+ consumption
[4] = read-out: Cell proliferation (A2780), 7 days, tested form: TFA salt
[5] = read-out: Parylation (U2OS), 6 hrs, 2 mM H2O2, tested form: TFA salt
[6] = read-out: PARP Trapping (U2OS), MMS, 4 hrs, tested form: TFA salt
[7] = read-out: Cell Proliferation (MDA-MB-436), 7 days, tested form: TFA salt
[8] = read-out: Cell proliferation (A2780), 7 days
[9] = read-out: Parylation (U2OS), 6 hrs, 2 mM H2O2
[10] = read-out: PARP Trapping (U2OS), MMS, 4 hrs
[11] = read-out: Cell Proliferation (MDA-MB-436), 7 days

By UniProt entry, the sequences of proteins in these tests, tags left out.
UniProt P09874, whole entry: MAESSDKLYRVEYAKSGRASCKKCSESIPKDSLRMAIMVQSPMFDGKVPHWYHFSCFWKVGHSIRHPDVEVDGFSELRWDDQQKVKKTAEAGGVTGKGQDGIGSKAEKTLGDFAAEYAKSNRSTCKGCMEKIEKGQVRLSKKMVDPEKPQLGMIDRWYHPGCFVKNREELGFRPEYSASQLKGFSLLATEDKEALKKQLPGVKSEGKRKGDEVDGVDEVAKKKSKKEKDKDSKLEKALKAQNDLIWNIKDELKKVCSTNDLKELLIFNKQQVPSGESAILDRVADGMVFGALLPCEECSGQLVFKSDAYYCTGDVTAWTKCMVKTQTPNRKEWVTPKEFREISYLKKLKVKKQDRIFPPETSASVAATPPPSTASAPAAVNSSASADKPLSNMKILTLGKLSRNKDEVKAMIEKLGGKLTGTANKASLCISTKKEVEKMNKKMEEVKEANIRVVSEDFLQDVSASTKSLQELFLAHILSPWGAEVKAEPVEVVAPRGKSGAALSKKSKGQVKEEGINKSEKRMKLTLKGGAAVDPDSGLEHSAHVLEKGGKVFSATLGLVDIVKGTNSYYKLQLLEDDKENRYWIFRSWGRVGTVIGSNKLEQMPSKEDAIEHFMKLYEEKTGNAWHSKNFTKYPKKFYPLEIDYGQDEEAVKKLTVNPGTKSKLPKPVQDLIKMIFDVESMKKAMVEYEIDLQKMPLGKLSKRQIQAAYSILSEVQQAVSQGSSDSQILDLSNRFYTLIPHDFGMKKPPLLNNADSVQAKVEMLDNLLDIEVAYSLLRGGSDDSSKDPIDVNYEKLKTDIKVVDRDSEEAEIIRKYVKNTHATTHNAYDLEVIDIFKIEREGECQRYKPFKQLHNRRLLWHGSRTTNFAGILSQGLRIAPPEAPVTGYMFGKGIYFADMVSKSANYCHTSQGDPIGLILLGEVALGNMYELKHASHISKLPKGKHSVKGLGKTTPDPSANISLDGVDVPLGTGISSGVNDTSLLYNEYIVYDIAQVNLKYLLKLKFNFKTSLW

| Structure (SMILES) | IC50 (A2780 cells; [4]) | IC50 [1, 5] | IC50 (PARP1 [2]; [6]) | IC50 (MDA-MB-436 cells; [7]) | IC50 (A2780 cells; [8]) | IC50 (PARP1 [3]) | IC50 [1, 9] | IC50 (PARP1 [2]; [10]) | IC50 (MDA-MB-436 cells; [11]) | IC50 (PARP1 [3]; tested form: TFA salt) | other results |
| --- | --- | --- | --- | --- | --- | --- | --- | --- | --- | --- | --- |
| O=C(CNC1CC1)N1CCC[C@H](c2cccc(C(=O)N3CCN(CC45CCC(C(=O)N6CCN(C(=O)c7cc(Cc8n[nH]c(=O)c9ccccc89)ccc7F)CC6)(CC4)CO5)CC3)c2)C1 | 10 to 100 nM | 10 to 100 nM | 10 to 100 nM | < 10 nM |  |  |  |  |  |  |  |
| CCOc1cc(OC)ccc1CNCC(=O)N1CCC[C@@H](c2cccc(C(=O)N[C@@H](C(=O)N3CCC(CN4CCN(CC(=O)N5CCN(C(=O)c6cc(Cc7n[nH]c(=O)c8ccccc78)ccc6F)CC5)CC4)CC3)C3CCCCC3)c2)C1 |  |  |  |  | 100 to 1000 nM | < 1 nM | 100 to 1000 nM | 10 to 100 nM | 10 to 100 nM |  |  |
| O=C(CNC1CC1)N1CCC[C@@H](c2cccc(C(=O)N3CCN(CC45CCC(C(=O)N6CCN(C(=O)c7cc(Cc8n[nH]c(=O)c9ccccc89)ccc7F)CC6)(CC4)CO5)CC3)c2)C1 | 10 to 100 nM | 10 to 100 nM | 10 to 100 nM | < 10 nM |  |  |  |  |  | 1 to 10 nM |  |
| CCc1cccc(-c2cnc(C(=O)N3CCN(CC4CCN(CC(=O)N5CCN(C(=O)c6cc(Cc7n[nH]c(=O)c8ccccc78)ccc6F)CC5)CC4)CC3)c(NC(=O)CNCc3cccc(C)c3)c2)c1 |  |  |  |  |  |  |  |  |  |  | IC50 (A2780 cells; read-out: Cell proliferation (A2780), 7 days, tested form: FA salt): 100 to 1000 nM; IC50 (PARP1 [3]; tested form: FA salt): < 1 nM; IC50 ([1]; read-out: Parylation (U2OS), 6 hrs, 2 mM H2O2, tested form: FA salt): 100 to 1000 nM; IC50 (PARP1 [2]; read-out: PARP Trapping (U2OS), MMS, 4 hrs, tested form: FA salt): 10 to 100 nM; IC50 (MDA-MB-436 cells; read-out: Cell Proliferation (MDA-MB-436), 7 days, tested form: FA salt): 10 to 100 nM |
| CCOc1cc(OC)ccc1CNCC(=O)N1CCCC(c2cccc(C(=O)N[C@@H](C(=O)N3CCC(CN4CCN(CC(=O)N5CCN(C(=O)c6cc(Cc7n[nH]c(=O)c8ccccc78)ccc6F)CC5)CC4)CC3)C3CCCCC3)c2)C1 (stereo partly drawn) |  |  |  |  | 1000 to 10000 nM | < 1 nM | 100 to 1000 nM | 100 to 1000 nM | 10 to 100 nM |  |  |
| O=C(N[C@@H](C(=O)N1CCC(OC2CCN(CC(=O)N3CCN(C(=O)c4cc(Cc5n[nH]c(=O)c6ccccc56)ccc4F)CC3)CC2)CC1)C1CCCCC1)c1cccc([C@H]2CCCN(C(=O)CNC3CC3)C2)c1 | 100 to 1000 nM | 100 to 1000 nM | 100 to 1000 nM | 100 to 1000 nM |  |  |  |  |  | < 1 nM |  |
| O=C(N[C@@H](C(=O)N1CCN(CC2CCN(CC(=O)N3CCN(C(=O)c4cc(Cc5n[nH]c(=O)c6ccccc56)ccc4F)CC3)CC2)CC1)C1CCCCC1)c1cccc([C@@H]2CCCN(C(=O)CNCc3ccc(F)cc3F)C2)c1 |  |  |  |  | 100 to 1000 nM | < 1 nM | 10 to 100 nM | 100 to 1000 nM | 10 to 100 nM |  |  |
| O=C(N[C@@H](C(=O)N1CCC(OC2CCN(CC(=O)N3CCN(C(=O)c4cc(Cc5n[nH]c(=O)c6ccccc56)ccc4F)CC3)CC2)CC1)C1CCCCC1)c1cccc([C@@H]2CCCN(C(=O)CNC3CC3)C2)c1 | 10 to 100 nM | 100 to 1000 nM | 100 to 1000 nM | 10 to 100 nM |  |  |  |  |  | < 1 nM |  |

Reference: patent US20250127907A1, “PARP INHIBITORS” (Stablix, Inc., priority 2023, published 2025)
